Experimental data taken from patent publication EP1329454A1, “THIENOPYRIMIDINE COMPOUNDS AND THEIR SALTS AND PROCESS FOR PREPARATION OF BOTH” (NIPPON SODA CO., LTD., priority 2000, dated 2002).

By UniProt entry, the sequences of proteins in these tests, tags left out.
UniProt O00408, whole entry: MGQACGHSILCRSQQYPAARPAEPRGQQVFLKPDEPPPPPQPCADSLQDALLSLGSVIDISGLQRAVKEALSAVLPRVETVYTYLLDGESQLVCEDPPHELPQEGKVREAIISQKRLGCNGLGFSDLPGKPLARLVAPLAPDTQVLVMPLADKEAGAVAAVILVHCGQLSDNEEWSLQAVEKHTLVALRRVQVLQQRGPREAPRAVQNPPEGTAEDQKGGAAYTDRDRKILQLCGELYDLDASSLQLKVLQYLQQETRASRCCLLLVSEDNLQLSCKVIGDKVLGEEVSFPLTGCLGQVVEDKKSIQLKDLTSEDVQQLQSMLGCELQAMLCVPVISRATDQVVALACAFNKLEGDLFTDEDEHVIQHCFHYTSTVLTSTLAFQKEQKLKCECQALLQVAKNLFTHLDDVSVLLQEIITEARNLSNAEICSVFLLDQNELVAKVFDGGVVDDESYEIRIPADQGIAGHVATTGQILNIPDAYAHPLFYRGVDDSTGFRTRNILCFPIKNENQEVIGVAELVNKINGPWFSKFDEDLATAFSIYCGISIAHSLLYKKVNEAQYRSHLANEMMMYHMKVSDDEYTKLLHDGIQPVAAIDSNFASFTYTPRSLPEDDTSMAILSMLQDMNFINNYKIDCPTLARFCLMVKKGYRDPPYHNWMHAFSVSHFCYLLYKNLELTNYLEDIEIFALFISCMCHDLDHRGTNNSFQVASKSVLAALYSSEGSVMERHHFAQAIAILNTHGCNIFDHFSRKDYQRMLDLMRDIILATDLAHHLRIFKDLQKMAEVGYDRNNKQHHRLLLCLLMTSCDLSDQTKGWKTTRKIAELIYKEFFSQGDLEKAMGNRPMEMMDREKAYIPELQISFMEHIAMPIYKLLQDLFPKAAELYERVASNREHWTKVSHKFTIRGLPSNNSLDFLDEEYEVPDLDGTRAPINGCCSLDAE

Target: PDE 2 (cGMP stimulated PDE) (Homo sapiens, UniProt O00408)
Assay: Phosphodiesterase inhibiting effect, PDE 2 separated from human platelets
Format: biochemical
Conditions: isozyme from human platelets; [3H]-cAMP or [3H]-cGMP substrate; read-out: PDE inhibiting activity : IC50(nM) PDE2
Excerpt: PDE 5 (cGMP specific PDE), PDE 3 (cGMP inhibited PDE) and PDE 2 (cGMP stimulated PDE) were separated from the platelets, PDE 1 (Ca-calmodulin dependent PDE) and PDE 4 (cAMP specific PDE) were separated from the heart and the kidney respectively. The method of Thompson, et al was partially modified to measure phosphodiesterase activities: […] of [3H]-cAMP or [3H]-cGMP was decomposed with phosphodiesterase. The produced 5'-AMP or 5'-GMP was decomposed to adenosine or guanosine with a snake venom (Sigma V7000). The reaction solution was added to anion exchange resin (Bio-Rad Co. Ltd., AG1-X8). Non-adsorbed adenosine or guanosine was counted by a liquid scintillation counter.

CCCc1nn(C)c2c(=O)[nH]c(-c3cc(S(=O)(=O)N4CCN(C)CC4)ccc3OCC)nc12 [Control, Sildenafil, reference compound]
IC50: 30000 nM
